Earlier results as cited in patent US20080076729A1, “Interferon-beta gene therapy using an improved, regulated expression system” (Schering Aktiengesellachaft, priority 2005, published 2008).

Test system: multiple sclerosis

B1: Recombinant interferon beta (IFN-β): recombinant IFN-β protein drug for MS introduced in 1993 (protein, UniProt P01574 22-187, looked up)
Interferon beta: MSYNLLGFLQRSSNFQCQKLLWQLNGRLEYCLKDRMNFDIPEEIKQLQQFQKEDAALTIYEMLQNIFAIFRQDSSSTGWNETIVENLLANVYHQINHLKTVLEEKLEKEDFTRGKLMSSLHLKRYYGRILHYLKAKEYSHCAWTIVRVEILRNFYFINRLTGYLRN
decrease in the number of relapses in MS patients (overall, annually): 30-37%
